## Yeast mating assay 2: variants of the scFv Ab-95

From the AlphaSeq antibody data of Engelhart et al. 2022 (doi:10.1038/s41597-022-01779-4), copy in the FLAb collection.

Target: peptide PDVDLGDISGINAS, taken from heptad repeat 2 (HR2) of SARS-CoV-2 spike.

Ab-95 is the parent antibody, in scFv form: VH, then a (GGGGS)3 linker, then VL. The heavy chain is unchanged in all variants.
VH: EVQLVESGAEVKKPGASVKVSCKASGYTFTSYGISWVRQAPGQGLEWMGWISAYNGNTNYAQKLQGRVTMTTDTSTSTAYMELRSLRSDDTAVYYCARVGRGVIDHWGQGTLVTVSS
VL: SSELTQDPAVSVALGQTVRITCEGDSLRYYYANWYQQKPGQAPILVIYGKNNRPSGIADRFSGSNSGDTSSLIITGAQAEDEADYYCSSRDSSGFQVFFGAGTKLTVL

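Phage display of a naive human antibody library on the peptide gave the parent. In library AAYL52, one, two or three CDR residues were substituted; doubles and triples were drawn at random. Affinity was read by AlphaSeq, a pooled yeast mating assay with surface-displayed partners. The frequency of each diploid, read from paired DNA barcodes, reflects how well the two displayed proteins bind. Read counts were normalised to the haploid input and turned into Kd by a linear fit to BCL2-family pairs of known affinity, for each replicate. The assay was run in three technical replicates.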

Each variant is given by its three light chain CDRs, as the data file delimits them; those of the parent are EGDSLRYYYAN, GKNNRPS, SSRDSSGFQVF. Kd is apparent (estimated from mating counts) and averaged on the log scale over replicates with a signal. Smaller is tighter. An entry "nd" has no value in the source: the pair was not observed among the diploids in any replicate. This suggests poor binding but is not conclusive. Background: pairings of library AAYL52 with three empty control strains gave a value in 28% of cases (median 8.2 µM, 5th percentile 800 nM). Values in that range, when seen in few replicates, are hard to tell from nonspecific mating.

| # | apparent Kd | detected | CDR-L1 | CDR-L2 | CDR-L3 |
|---|---|---|---|---|---|
| 1 | nd | 0/3 | EGDSLRYYYAN | GKNHNPS | SYRDSSGFQVF |
| 2 | 7.8 µM | 3/3 | EGDSNRYYYAN | GKNNRPI | SSRDGSGFQVF |
| 3 | nd | 0/3 | EGDSLRYYYCN | GKGNRPS | SSRDSSGFQMF |
| 4 | 22 µM | 2/3 | EGDSLRYTYAN | FPNNRPS | SSRDSSGFQVF |
| 5 | 260 nM | 3/3 | EGDSLRYYYAN | GKNNRPY | PSRDSSDFQVF |
| 6 | 12 µM | 3/3 | EGDSLRYYYAN | GKNNDPS | SSRDSSGFMVP |
| 7 | nd | 0/3 | EGDSIRYYYAS | GKNKRPS | SSRDSSGFQVF |
| 8 | 17 µM | 3/3 | LGDSLGYYYAN | GKMNRPS | SSRDSSGFQVF |
| 9 | 28 µM | 2/3 | EGDSLRPYYAN | GHNNRYS | SSRDSSGFQVF |
| 10 | 94 nM | 3/3 | NGMSLRSYYAN | GKNNRPS | SSRDSSGFQVF |
| 11 | 2.9 µM | 2/3 | EGFSLRYYYAN | GKNNIPG | SSRDSSGFQVF |
| 12 | 720 nM | 3/3 | EGDSLRYSYAN | GKNNRPS | SSRDSSGLFVF |
| 13 | 430 nM | 3/3 | EGDSLRYYYAN | GKNNRPG | SSRDSSGFCVY |
| 14 | 200 µM | 2/3 | EGDSLRYYYAN | PKNWRPS | SSRDSSGFGVF |
| 15 | 610 nM | 3/3 | EGDSLRYYYAN | GKNNRPS | SSRDSSGCMVG |
| 16 | 680 nM | 1/3 | EGDSLRYYYAN | CKNNRPS | SSRDSSGFQYF |
| 17 | 1.3 µM | 3/3 | EGDSLRYYYAN | GKNNRVS | SSRDISLFQVF |
| 18 | 2.8 µM | 3/3 | EGDSDRYYYLN | GKNNRPS | SSRDSSGFKVF |
| 19 | 5.4 µM | 2/3 | EGDSLRYYYAN | GKNRRPS | SDRDSSGFNVF |
| 20 | nd | 0/3 | EGDSLRYYYAN | GKNNRPS | SSTDSSLIQVF |
| 21 | 320 nM | 3/3 | EGDSLRYWYAN | GKNNRPS | SSRDSEGFNVF |
| 22 | 440 µM | 1/3 | EGDYLRFYYAN | GKNNRPS | SSRDSSQFQVF |
| 23 | 30 nM | 3/3 | EGDSLRYDYAN | GKNNRPS | SVRDGSGFQVF |
| 24 | 200 nM | 3/3 | EGDCLRYYYAN | GKNNRPS | SSRDFSGFQVF |
| 25 | 5.3 µM | 1/3 | EGDSLRYYYAN | GKNNRPS | SSRQSSGFQCF |
| 26 | 1.8 nM | 3/3 | EGDSLRYYDAN | GKNNRAS | SSRDSSGFQVF |
| 27 | 280 nM | 3/3 | EGHSLRYYYAN | GKNNRPS | SSRDSSGFQVW |
| 28 | 410 nM | 3/3 | EGDHLRYYCAE | GKNNRPS | SSRDSSGFQVF |
| 29 | 50 µM | 1/3 | EGDSLHYYYAN | YKNNRPS | SSHDSSGFQVF |
| 30 | 3.2 µM | 2/3 | EGCSLRYYYGN | GKNNRPS | NSRDSSGFQVF |
| 31 | 1.5 µM | 3/3 | EGDSLRYYYAS | GKNNRKS | SSRDSSGFQVY |
| 32 | 10 µM | 3/3 | EEDSLRYYYAL | GKNNRPS | SSRDCSGFQVF |
| 33 | 1.0 µM | 3/3 | EGDQLRYYFQN | GKNNRPS | SSRDSSGFQVF |
| 34 | 7.9 µM | 2/3 | EGDSLRYYYAN | GKPNRPS | SSRDSSGFQVQ |
| 35 | 13 µM | 2/3 | EGDSLRYYYAN | GKNNRPH | SSCDSSGFQYF |
| 36 | 300 nM | 3/3 | EGDSLRYYYAN | GKNNRPS | SSRCSSGFQNV |
| 37 | 3.0 µM | 1/3 | EGDSLRYYYAN | GKNNRPP | SSYDNSGFQVF |
| 38 | 1.3 µM | 3/3 | EGDSLRNYYAN | GKNNRPS | SSHDPSGFQVF |
| 39 | 85 nM | 3/3 | VGDSLRPYYAN | GKNNRPS | SSRDISGFQVF |
| 40 | 1.8 µM | 1/3 | EGSSLRYYYAN | GKNNRRN | SSRDSSGFQVF |
| 41 | 8.3 µM | 1/3 | EGDSLRYYYAN | GYNNRWS | SSRDSSGFQVC |
| 42 | 16 µM | 2/3 | EGDSWRYYYAN | GKRNRPS | WSRDSSGFQVF |
| 43 | nd | 0/3 | EGDSLRYYYAR | IKNNRPI | SSRDSSGFQVF |
| 44 | 23 nM | 3/3 | EGDSLRYTYAN | GKNMRPS | SDRDSSGFQVF |
| 45 | 380 nM | 1/3 | EGDSLRYYYAN | GKNHRPS | SSRQNSGFQVF |
| 46 | 2.2 µM | 2/3 | EGDSLRYYYAN | GKNNRPS | SSPYSSGPQVF |
| 47 | 4.7 µM | 3/3 | EGDSLRYYYAN | GKNNRDR | SSRDESGFQVF |
| 48 | 17 µM | 1/3 | EGDSKRYYYSH | GKNNRPS | SSRDSSGFQVF |
| 49 | 5.5 µM | 2/3 | EGDSRMYCYAN | GKNNRPS | SSRDSSGFQVF |
| 50 | nd | 0/3 | EGDSLPYYYAN | GKNNNPS | SSRDSSGFQRF |

A selection of 3 entries from above:

CDR-L1,CDR-L2,CDR-L3,apparent Kd,detected
EGDSLRYYYAN,GKNNRPH,SSCDSSGFQYF,13 µM,2/3
EGDSDRYYYLN,GKNNRPS,SSRDSSGFKVF,2.8 µM,3/3
EGDSLRYYDAN,GKNNRAS,SSRDSSGFQVF,1.8 nM,3/3